Source: PMC8442969 (Protein Science : A Publication of the Protein Society, 2021)

By UniProt entry, the sequences of proteins in these tests, tags left out. Where a name states a change or a piece, a line headed by the entry shows the natural chain unless it says otherwise.
UniProt P0CG48: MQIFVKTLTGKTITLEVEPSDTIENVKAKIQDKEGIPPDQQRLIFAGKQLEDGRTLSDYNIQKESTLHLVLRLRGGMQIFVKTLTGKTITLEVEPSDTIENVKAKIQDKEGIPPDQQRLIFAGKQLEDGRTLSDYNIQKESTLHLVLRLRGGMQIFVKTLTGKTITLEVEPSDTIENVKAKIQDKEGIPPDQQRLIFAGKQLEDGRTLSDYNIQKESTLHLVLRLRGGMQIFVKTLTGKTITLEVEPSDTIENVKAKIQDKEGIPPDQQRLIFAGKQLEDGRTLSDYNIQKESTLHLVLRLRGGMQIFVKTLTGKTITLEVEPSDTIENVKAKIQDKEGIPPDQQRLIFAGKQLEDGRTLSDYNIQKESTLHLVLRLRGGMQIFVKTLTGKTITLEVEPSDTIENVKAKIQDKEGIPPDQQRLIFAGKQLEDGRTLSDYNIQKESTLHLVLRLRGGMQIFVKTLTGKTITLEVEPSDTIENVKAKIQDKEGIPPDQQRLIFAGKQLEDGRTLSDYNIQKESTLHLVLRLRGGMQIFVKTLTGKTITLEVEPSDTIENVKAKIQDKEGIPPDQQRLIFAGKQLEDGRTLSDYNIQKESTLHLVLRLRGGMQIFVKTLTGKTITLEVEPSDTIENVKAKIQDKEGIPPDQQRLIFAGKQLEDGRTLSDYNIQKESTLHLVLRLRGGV

Molecular target: 6His-tagged human mono-ubiquitin (bought) (human, UniProt P0CG48, in part)
Assay: pull-down

- binding result: binds
B1: GST-tagged human DSS1 (natural protein)
chain: MSEKKQPVDLGLLEEDDEFEEFPAEDWAGLDEDEDAHVWEDNWDDDNVEDDFSNQLRAELEKHGYKMETS
